Test system: phospholamban serine-16
Assay: Phosphorylation of PLB at serine-16 in failed LV tissue homogenate with/without PK inhibitor and CCM signal (Western blot)
Assay type: biochemical, dog
Conditions: Control + PK Inhibitor, no CCM, single samples

## CN[C@@H]1C[C@H]2O[C@@](C)([C@@H]1OC)n1c3ccccc3c3c4c(c5c6ccccc6n2c5c31)C(=O)NC4 [STAUROSPORIN]
10 sec
  P-PLB serine-16: 13.7
30 sec
  P-PLB serine-16: 11.9

Reference: patent US8352031B2, “Protein activity modification” (Impulse Dynamics NV, priority 2004, dated 2013)
